In article PMC2074348, “Preclinical in vivo efficacy of two 9-dihydrotaxane analogues against human and murine tumours” (British Journal of Cancer, 1996):

Tests used:
[1] = Water solubility
[2] = tested on: A549, HT-29, B16F10 and P388 tumour cells; experiment: In vitro cytotoxicity across the four tumour cell lines, compared with paclitaxel; assay type: cell-based, human and murine; conditions: IC50 across the four tumour cell lines
[3] = tested on: B16F10; experiment: In vitro tumour cell cytotoxicity, colorimetric MTT assay, 72 h; assay type: cell-based, murine; conditions: B16F10 cells, IC50 compared with paclitaxel
[4] = tested on: BDF mice bearing B16F10 ascites tumours; conditions: for Tolerated daily dosage relative to paclitaxel: daily i.p. doses; for Toxicity compared with paclitaxel: mouse, in vivo
[5] = tested on: A549; experiment: In vitro tumour cell cytotoxicity, colorimetric MTT assay, 72 h; assay type: cell-based, human; conditions: A549 cells, IC50 compared with paclitaxel

Row | SMILES | Water solubility relative to paclitaxel [1] | Fold less potent than paclitaxel [2] | Fold less potent than paclitaxel [3] | Tolerated daily dosage relative to paclitaxel [4] | Toxicity compared with paclitaxel [4] | Fold less potent than paclitaxel [5] | Fold less potent than paclitaxel ([2]; listed as 9-DH-t)
1 | CC(=O)OC12COC1CC(O)C1(C)C(O)C(O)C3=C(C)C(OC(=O)C(O)C(NC(=O)c4ccccc4)c4ccccc4)CC(O)(C(OC(=O)c4ccccc4)C21)C3(C)C (centres unmarked) [Compound A-86415, 10-deacetyl-9-dihydrotaxol] | approximately 20 fold | ≤ 8 fold | 8 fold | 4 fold | less toxic than paclitaxel | 3 fold | 
2 | CC(=O)O[C@@H]1C2=C(C)[C@@H](OC(=O)[C@H](O)[C@@H](NC(=O)c3ccccc3)c3ccccc3)C[C@@](O)([C@@H](OC(=O)c3ccccc3)[C@@H]3[C@]4(OC(C)=O)CO[C@@H]4C[C@H](O)[C@@]3(C)[C@H]1O)C2(C)C [Compound A-85576, 9-dihydrotaxol] | approximately 75 fold | ≤ 8 fold |  | 4 fold | less toxic than paclitaxel |  | 3- to 5 fold
